In patent US12507703B2, “Methods, devices and compositions for preserving human milk” (The Trustees of Princeton University, priority 2023, dated 2025):

Tested on: lipase
Assay: Lipase/lipolysis assay (EnzChek Lipase Substrate, quenched BODIPY-fatty acid conjugate) on stored human milk; further: test concentration or dose not given here

For Lactate, the “Lipase (RFU)” value was 970.5105 RFU.
